Assay results: patent publication US5552411A, “Sulfonylquinolines as central nervous system and cardiovascular agents” (Warner-Lambert Company, priority 1995, dated 1996)
pEC50: −log10 of the molar value.

Amino acid sequences for entries named in this document (tags omitted).
UniProt P25929, whole entry: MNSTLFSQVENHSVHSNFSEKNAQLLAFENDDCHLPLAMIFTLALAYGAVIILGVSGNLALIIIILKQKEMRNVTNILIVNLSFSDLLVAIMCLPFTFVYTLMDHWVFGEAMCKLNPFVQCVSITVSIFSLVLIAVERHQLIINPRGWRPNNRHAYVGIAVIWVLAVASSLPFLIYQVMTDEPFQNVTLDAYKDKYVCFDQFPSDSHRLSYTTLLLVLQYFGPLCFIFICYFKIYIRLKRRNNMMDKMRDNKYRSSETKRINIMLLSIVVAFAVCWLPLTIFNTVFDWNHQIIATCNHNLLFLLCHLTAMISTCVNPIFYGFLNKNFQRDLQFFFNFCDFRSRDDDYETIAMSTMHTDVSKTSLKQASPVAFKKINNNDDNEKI

Target: T1, Human NPY1 Receptor (Homo sapiens, UniProt P25929)
T1 construct: expressed in transfected cells; host or cells: SK-N-MC human neuroblastoma cells
Experiment: NPY cAMP method: effect on EC50 of NPY-induced inhibition of forskolin-stimulated cAMP production in SK-N-MC cells
Format: cell-based
Conditions: NPY alone, 10 μM forskolin

Substance: NPY: Neuropeptide Y (NPY), involved in the control of feeding in mammals; agonist in the cAMP assay
- pEC50: 9.52
